These results are taken from patent publication US6649417B2, “Tissue-based standoff biosensors for detecting chemical warfare agents” (dated 2003).

The assay concerns Nostoc sensor.

Take `CCCCN(CCCC)CCCC`: the “correlation between concentration and change in yield (dose-response curves)” value (7.4, 248, and 642 mg/L TBA, FIG. 2) is given as “good correlation”. Further, the “Fs (minimal fluorescence signal) change on exposure” value (agent vapor in air stream, 200 ml/min, relative humidity 85%, curves every 5 min) is on record as “increased”.
